From PubChem BioAssay AID1434 (Sanford-Burnham Center for Chemical Genomics, 2008)
Several values for one entry are separate records, joined by “and”; a condition that tells them apart may be missing. Equal values may be shown once. The list shows a part of the results, in another mix than the full data. Activity calls are given as the source filed them.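 The calls were made as follows: active = mean inhibition across duplicate retests at 20 µM reaching about 50% (limit read from the data); inactive = the rest, inconclusive results apart.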

The chains behind the UniProt entries cited, without tags or fusion partners.
UniProt Q01196, whole entry, looked up: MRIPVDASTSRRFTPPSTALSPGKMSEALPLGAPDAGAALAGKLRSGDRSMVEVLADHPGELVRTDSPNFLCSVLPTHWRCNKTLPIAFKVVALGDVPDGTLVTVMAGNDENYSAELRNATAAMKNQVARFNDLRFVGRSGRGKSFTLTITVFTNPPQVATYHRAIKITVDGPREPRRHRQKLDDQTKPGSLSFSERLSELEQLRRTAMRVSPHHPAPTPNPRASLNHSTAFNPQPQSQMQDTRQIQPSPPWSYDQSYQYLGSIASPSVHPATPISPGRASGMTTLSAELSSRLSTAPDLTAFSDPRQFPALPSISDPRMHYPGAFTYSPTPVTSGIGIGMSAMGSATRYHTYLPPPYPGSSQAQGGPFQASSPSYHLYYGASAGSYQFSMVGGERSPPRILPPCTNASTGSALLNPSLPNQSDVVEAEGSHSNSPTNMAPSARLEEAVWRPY
UniProt Q13951, whole entry, looked up: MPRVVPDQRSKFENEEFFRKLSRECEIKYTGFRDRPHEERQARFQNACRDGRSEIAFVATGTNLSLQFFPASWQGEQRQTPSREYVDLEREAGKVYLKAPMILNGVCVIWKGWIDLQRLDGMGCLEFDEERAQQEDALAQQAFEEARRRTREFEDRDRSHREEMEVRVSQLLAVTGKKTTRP

Each molecule was assayed against Runt-related transcription factor 1 (Homo sapiens) + Core-binding factor subunit beta (Homo sapiens) (UniProt Q01196+Q13951) (assay: disruptors of Runt domain/CBFb-SMMHC interaction – biochemical, FRET, Cerulean-Runt, Venus-CBFb-SMMHC, uHTS, primary screen (AID 1434;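 also: 0% = DMSO wells and 100% = wells with excess untagged CBFb-SMMHC; inhibitors lower the FRET ratio by blocking Runt binding to CBFb-SMMHC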)). Conditions: Cerulean-Runt/Venus-CBFb-SMMHC FRET ratio 530/480, 1 h; at 20 µM; active compounds read high.

Structure (SMILES) | inhibition
Cc1ccc(NP(=O)(Oc2ccccc2F)Oc2ccccc2F)nc1 | inactive: 1.2%
CCOP(=O)(Nc1ccccc1)OCC | inactive: -0.2% and inactive: -2%
Cc1cc(SC(NC(=O)c2ccc(F)cc2)C(Cl)(Cl)Cl)ncn1 (stereo not drawn) | inactive: 20.5%
O=C(O)c1ccccc1[As](=O)(O)O | inactive: -7.4%
CC(=O)Nc1ccc([As](=O)(O)O)cc1 | inactive: 0.6%
O=P(Nc1nc2ccc(Cl)cc2s1)(c1ccccc1)c1ccccc1 | inactive: -1.3%
O=[N+]([O-])c1cccc(NC2=NCC(CBr)S2)c1 (stereo not drawn) | inactive: 0.4%
O=C(O)CNc1ccc([As](=O)(O)O)cc1 | inactive: -0.3%
CC(C)(C)C(=O)NC(Sc1ccncn1)C(Cl)(Cl)Cl (stereo not drawn) | inactive: 0.5%
O=[N+]([O-])c1ncn(CCn2ncnc2[N+](=O)[O-])n1 | inactive: -3.9%
O=C(Nc1cc([As](=O)(O)O)ccc1O)c1ccccc1 | inactive: 1.4%
CN(C)C(=O)OCCc1n(C)cc[n+]1C | inactive: 1.2%
CC(C)=N/N=C(\N)N[N+](=O)[O-] | inactive: -5.9%
CC1CCN(C(=O)Oc2c(Cl)cc(Cl)c3cccnc23)CC1 | inactive: 5.4%
C[N+]1=C2C=CC=CC=C2SC12C([N+](=O)[O-])=CC([N+](=O)[O-])=C[C-]2[N+](=O)[O-] (stereo not drawn) | inactive: 17.3%
Nc1ccc([As](=O)(O)c2ccc(N)cc2)cc1 | inactive: -6%
CCN(/C(=N/P(=O)(N1CCOCC1)N1CCOCC1)N1CCOCC1)c1ccc(OC)cc1 | inactive: 1%
O=[N+]([O-])c1cccc2n[nH]nc12 | inactive: -2.8%
CC(=O)N1C2C3N(C(C)=O)C1C1N(C(C)=O)C(C(N1C(C)=O)N3C(C)=O)N2C(C)=O | inactive: -1.4%
CCc1nc2c(n1)c1c(non1O)c1c2no[n+]1[O-] | inactive: 1.9%
O=[N+]([O-])c1cc([N+](=O)[O-])c(CCNc2ccccc2)c([N+](=O)[O-])c1 | inactive: -7.1%
Cc1ccc(NP(=O)(Oc2ccccc2)Oc2ccccc2)nc1 | inactive: -1.6%
COc1ccc(C2=NCC(CBr)S2)cc1 (stereo not drawn) | inactive: -1.2%
